# Results taken from article PMC4249368 (Antimicrobial Agents and Chemotherapy, 2014).
# Read-outs that look alike come from different tables or passages of the source.
# What was measured:
# [1] = rabbits, daily 10-mg/kg i.v.
# [2] = rats, 20-mg/kg i.v.
# [3] = cited from earlier work
# [4] = rabbits, daily 10-mg/kg i.v., agar dilution method; cited from earlier work
# [5] = rats, 20-mg/kg i.v., agar dilution method; cited from earlier work
# [6] = cited from earlier work; remark: listed apart in the source
substance,measurement,setting,value
ramoplanin,12-h concentration (C12),[1],2.5 µM
same,12-h concentration (C12) as multiple of MIC,[1],3 × MIC
same,maximal plasma level (Cmax),[1],11 µM
same,maximal plasma level (Cmax) as multiple of MIC,[1],14 × MIC
same,C12,[2],0.8 µM
same,C12 as multiple of MIC,[2],1 × MIC
same,Cmax,[2],31 µM
same,Cmax as multiple of MIC,[2],39 × MIC
same,aqueous solubility,[3],> 100 mg/mL
same,12-h concentration (C12),[4],6.4 µg/mL
same,maximal plasma level (Cmax),[4],28 µg/mL
same,Cmax,[5],79 µg/mL
same,complication of parenteral administration in humans,[6],hemolysis
same,systemic absorption after oral dosing,[6]; orally dosed,not systemically absorbed
